# Values of other authors, collected in PMC7573825, “Population Pharmacokinetics of Vancomycin in Kidney Transplant Recipients: Model Building and Parameter Optimization” (Frontiers in Pharmacology, 2020).
# Design: method as in 3 sources, one per row (each row's own in cited_ref): ref Adane et al., 2015; Lin et al., 2016 ||| ref Ji et al., 2018 ||| ref Lin et al., 2019
# Conditions: second of two other studies, typical creatinine clearance rate nearly 60 ml/min; ref Lin et al., 2019; cited from earlier work
smiles,measurement,value
CN[C@H](CC(C)C)C(=O)N[C@H]1C(=O)N[C@@H](CC(N)=O)C(=O)N[C@H]2C(=O)N[C@H]3C(=O)N[C@H](C(=O)N[C@H](C(=O)O)c4cc(O)cc(O)c4-c4cc3ccc4O)[C@H](O)c3ccc(c(Cl)c3)Oc3cc2cc(c3O[C@@H]2O[C@H](CO)[C@@H](O)[C@H](O)[C@H]2O[C@H]2C[C@](C)(N)[C@H](O)[C@H](C)O2)Oc2ccc(cc2Cl)[C@H]1O [vancomycin],typical value of drug clearance,2.45 L/h
